Assay results from US20170106017A1 (priority 2014, published 2017).
Where two headings read alike, the source gives them in different places.

Assays:
ALS patients [1] = tested on: ALS patients
ALS patients [2] = tested on: ALS patients; remark: listed apart in the source
[3] = single iv dose 0.2 mg/kg (N = 6)
[4] = single iv dose 0.8 mg/kg (N = 6)
[5] = single iv dose 1.6 mg/kg (N = 6)
[6] = single iv dose 3.2 mg/kg (N = 6)

For sodium chlorite [NP001], the “TEAE Anxiety, patients %” value (ALS patients [1]; 1 mg/kg (N = 49)) was “(6.1) %”, the “TEAE Anxiety, patients n” value (ALS patients [1]; 1 mg/kg (N = 49)) was 3 and the “TEAE Back pain, patients %” value (ALS patients [1]; 1 mg/kg (N = 49)) was “(2.0) %”. The “TEAE Back pain, patients n” value (ALS patients [1]; 1 mg/kg (N = 49)) was 1, the “TEAE Constipation, patients %” value (ALS patients [1]; 1 mg/kg (N = 49)) was “(10.2) %” and the “TEAE Constipation, patients n” value (ALS patients [1]; 1 mg/kg (N = 49)) was 5. For the same substance, the “TEAE Contusion, patients %” value (ALS patients [1]; 1 mg/kg (N = 49)) was “(6.1) %”, the “TEAE Contusion, patients n” value (ALS patients [1]; 1 mg/kg (N = 49)) was 3 and the “TEAE Cough, patients %” value (ALS patients [1]; 1 mg/kg (N = 49)) was “(14.3) %”. The “TEAE Cough, patients n” value (ALS patients [1]; 1 mg/kg (N = 49)) was 7, the “TEAE Diarrhea, patients %” value (ALS patients [1]; 1 mg/kg (N = 49)) was “(10.2) %” and the “TEAE Diarrhea, patients n” value (ALS patients [1]; 1 mg/kg (N = 49)) was 5. The “TEAE Dizziness, patients %” value (ALS patients [1]; 1 mg/kg (N = 49)) was “(8.2) %”, the “TEAE Dizziness, patients n” value (ALS patients [1]; 1 mg/kg (N = 49)) was 4 and the “TEAE Dysphagia, patients %” value (ALS patients [1]; 1 mg/kg (N = 49)) was “(4.1) %”. The “TEAE Dysphagia, patients n” value (ALS patients [1]; 1 mg/kg (N = 49)) was 2, the “TEAE Edema peripheral, patients %” value (ALS patients [1]; 1 mg/kg (N = 49)) was “(6.1) %” and the “TEAE Edema peripheral, patients n” value (ALS patients [1]; 1 mg/kg (N = 49)) was 3. The “TEAE Fall, patients %” value (ALS patients [1]; 1 mg/kg (N = 49)) was “(32.7) %”, the “TEAE Fall, patients n” value (ALS patients [1]; 1 mg/kg (N = 49)) was 16 and the “TEAE Fatigue, patients %” value (ALS patients [1]; 1 mg/kg (N = 49)) was “(16.3) %”. The “TEAE Fatigue, patients n” value (ALS patients [1]; 1 mg/kg (N = 49)) was 8, the “TEAE Headache, patients %” value (ALS patients [1]; 1 mg/kg (N = 49)) was “(22.4) %” and the “TEAE Headache, patients n” value (ALS patients [1]; 1 mg/kg (N = 49)) was 11. For the same substance, the “TEAE Infusion site erythema, patients %” value (ALS patients [1]; 1 mg/kg (N = 49)) was “(12.2) %”, the “TEAE Infusion site erythema, patients n” value (ALS patients [1]; 1 mg/kg (N = 49)) was 6 and the “TEAE Infusion site extravasation, patients %” value (ALS patients [1]; 1 mg/kg (N = 49)) was “(18.4) %”. For the same substance, the “TEAE Infusion site extravasation, patients n” value (ALS patients [1]; 1 mg/kg (N = 49)) was 9, the “TEAE Infusion site pain, patients %” value (ALS patients [1]; 1 mg/kg (N = 49)) was “(18.4) %” and the “TEAE Infusion site pain, patients n” value (ALS patients [1]; 1 mg/kg (N = 49)) was 9. For the same substance, the “TEAE Infusion site swelling, patients %” value (ALS patients [1]; 1 mg/kg (N = 49)) was “(4.1) %”, the “TEAE Infusion site swelling, patients n” value (ALS patients [1]; 1 mg/kg (N = 49)) was 2 and the “TEAE Muscle contractions involuntary, patients %” value (ALS patients [1]; 1 mg/kg (N = 49)) was “(6.1) %”. For the same substance, the “TEAE Muscle contractions involuntary, patients n” value (ALS patients [1]; 1 mg/kg (N = 49)) was 3, the “TEAE Muscle spasms, patients %” value (ALS patients [1]; 1 mg/kg (N = 49)) was “(10.2) %” and the “TEAE Muscle spasms, patients n” value (ALS patients [1]; 1 mg/kg (N = 49)) was 5. For the same substance, the “TEAE Muscular weakness, patients %” value (ALS patients [1]; 1 mg/kg (N = 49)) was “(2.0) %”, the “TEAE Muscular weakness, patients n” value (ALS patients [1]; 1 mg/kg (N = 49)) was 1 and the “TEAE Nasal congestion, patients %” value (ALS patients [1]; 1 mg/kg (N = 49)) was “(4.1) %”. For the same substance, the “TEAE Nasal congestion, patients n” value (ALS patients [1]; 1 mg/kg (N = 49)) was 2, the “TEAE Nasopharyngitis, patients %” value (ALS patients [1]; 1 mg/kg (N = 49)) was “(12.2) %” and the “TEAE Nasopharyngitis, patients n” value (ALS patients [1]; 1 mg/kg (N = 49)) was 6. For the same substance, the “TEAE Nausea, patients %” value (ALS patients [1]; 1 mg/kg (N = 49)) was “(12.2) %”, the “TEAE Nausea, patients n” value (ALS patients [1]; 1 mg/kg (N = 49)) was 6 and the “TEAE Pain in extremity, patients %” value (ALS patients [1]; 1 mg/kg (N = 49)) was “(6.1) %”. The “TEAE Pain in extremity, patients n” value (ALS patients [1]; 1 mg/kg (N = 49)) was 3, the “TEAE Rash, patients %” value (ALS patients [1]; 1 mg/kg (N = 49)) was “(8.2) %” and the “TEAE Rash, patients n” value (ALS patients [1]; 1 mg/kg (N = 49)) was 4. The “mean changes from baseline in vital signs or ECG parameters between treatment groups” value (ALS patients [1]; 1 mg/kg and 2 mg/kg vs placebo) was “No clinically relevant mean changes”, the “TEAE Anxiety, patients %” value (ALS patients [1]; 2 mg/kg (N = 45)) was “(4.4) %” and the “TEAE Anxiety, patients n” value (ALS patients [1]; 2 mg/kg (N = 45)) was 2. The “TEAE Back pain, patients %” value (ALS patients [1]; 2 mg/kg (N = 45)) was “(11.1) %”, the “TEAE Back pain, patients n” value (ALS patients [1]; 2 mg/kg (N = 45)) was 5 and the “TEAE Constipation, patients %” value (ALS patients [1]; 2 mg/kg (N = 45)) was “(8.9) %”. The “TEAE Constipation, patients n” value (ALS patients [1]; 2 mg/kg (N = 45)) was 4, the “TEAE Contusion, patients %” value (ALS patients [1]; 2 mg/kg (N = 45)) was “(6.7) %” and the “TEAE Contusion, patients n” value (ALS patients [1]; 2 mg/kg (N = 45)) was 3. For the same substance, the “TEAE Cough, patients %” value (ALS patients [1]; 2 mg/kg (N = 45)) was “(15.6) %”, the “TEAE Cough, patients n” value (ALS patients [1]; 2 mg/kg (N = 45)) was 7 and the “TEAE Diarrhea, patients %” value (ALS patients [1]; 2 mg/kg (N = 45)) was “(8.9) %”. The “TEAE Diarrhea, patients n” value (ALS patients [1]; 2 mg/kg (N = 45)) was 4, the “TEAE Dizziness, patients %” value (ALS patients [1]; 2 mg/kg (N = 45)) was “(20.0) %” and the “TEAE Dizziness, patients n” value (ALS patients [1]; 2 mg/kg (N = 45)) was 9. The “TEAE Dysphagia, patients %” value (ALS patients [1]; 2 mg/kg (N = 45)) was “(8.9) %”, the “TEAE Dysphagia, patients n” value (ALS patients [1]; 2 mg/kg (N = 45)) was 4 and the “TEAE Edema peripheral, patients %” value (ALS patients [1]; 2 mg/kg (N = 45)) was “(6.7) %”. For the same substance, the “TEAE Edema peripheral, patients n” value (ALS patients [1]; 2 mg/kg (N = 45)) was 3, the “TEAE Fall, patients %” value (ALS patients [1]; 2 mg/kg (N = 45)) was “(37.8) %” and the “TEAE Fall, patients n” value (ALS patients [1]; 2 mg/kg (N = 45)) was 17. The “TEAE Fatigue, patients %” value (ALS patients [1]; 2 mg/kg (N = 45)) was “(35.6) %”, the “TEAE Fatigue, patients n” value (ALS patients [1]; 2 mg/kg (N = 45)) was 16 and the “TEAE Headache, patients %” value (ALS patients [1]; 2 mg/kg (N = 45)) was “(20.0) %”. For the same substance, the “TEAE Headache, patients n” value (ALS patients [1]; 2 mg/kg (N = 45)) was 9, the “TEAE Infusion site erythema, patients %” value (ALS patients [1]; 2 mg/kg (N = 45)) was “(13.3) %” and the “TEAE Infusion site erythema, patients n” value (ALS patients [1]; 2 mg/kg (N = 45)) was 6. The “TEAE Infusion site extravasation, patients %” value (ALS patients [1]; 2 mg/kg (N = 45)) was “(22.2) %”, the “TEAE Infusion site extravasation, patients n” value (ALS patients [1]; 2 mg/kg (N = 45)) was 10 and the “TEAE Infusion site pain, patients %” value (ALS patients [1]; 2 mg/kg (N = 45)) was “(33.3) %”. For the same substance, the “TEAE Infusion site pain, patients n” value (ALS patients [1]; 2 mg/kg (N = 45)) was 15, the “TEAE Infusion site swelling, patients %” value (ALS patients [1]; 2 mg/kg (N = 45)) was “(4.4) %” and the “TEAE Infusion site swelling, patients n” value (ALS patients [1]; 2 mg/kg (N = 45)) was 2. For the same substance, the “TEAE Muscle contractions involuntary, patients %” value (ALS patients [1]; 2 mg/kg (N = 45)) was “(13.3) %”, the “TEAE Muscle contractions involuntary, patients n” value (ALS patients [1]; 2 mg/kg (N = 45)) was 6 and the “TEAE Muscle spasms, patients %” value (ALS patients [1]; 2 mg/kg (N = 45)) was “(4.4) %”. For the same substance, the “TEAE Muscle spasms, patients n” value (ALS patients [1]; 2 mg/kg (N = 45)) was 2, the “TEAE Muscular weakness, patients %” value (ALS patients [1]; 2 mg/kg (N = 45)) was “(11.1) %” and the “TEAE Muscular weakness, patients n” value (ALS patients [1]; 2 mg/kg (N = 45)) was 5. For the same substance, the “TEAE Nasal congestion, patients %” value (ALS patients [1]; 2 mg/kg (N = 45)) was “(4.4) %”, the “TEAE Nasal congestion, patients n” value (ALS patients [1]; 2 mg/kg (N = 45)) was 2 and the “TEAE Nasopharyngitis, patients %” value (ALS patients [1]; 2 mg/kg (N = 45)) was “(13.3) %”. The “TEAE Nasopharyngitis, patients n” value (ALS patients [1]; 2 mg/kg (N = 45)) was 6, the “TEAE Nausea, patients %” value (ALS patients [1]; 2 mg/kg (N = 45)) was “(15.6) %” and the “TEAE Nausea, patients n” value (ALS patients [1]; 2 mg/kg (N = 45)) was 7. The “TEAE Pain in extremity, patients %” value (ALS patients [1]; 2 mg/kg (N = 45)) was “(6.7) %”, the “TEAE Pain in extremity, patients n” value (ALS patients [1]; 2 mg/kg (N = 45)) was 3 and the “TEAE Rash, patients %” value (ALS patients [1]; 2 mg/kg (N = 45)) was “(8.9) %”. For the same substance, the “TEAE Rash, patients n” value (ALS patients [1]; 2 mg/kg (N = 45)) was 4, the “Subjects with a TEAE that Occurred in ≧2 Subjects in the All NP001 Doses or Placebo Groups” value (“Subjects with a TEAE that Occurred” below) (ALS patients [2]; All NP001 Doses (N = 24)) was 7 and the “TEAE Contusion, subjects” value (ALS patients [2]; All NP001 Doses (N = 24)) was 2. The “TEAE Facial pain, subjects” value (ALS patients [2]; All NP001 Doses (N = 24)) was 2, the “TEAE Fall, subjects” value (ALS patients [2]; All NP001 Doses (N = 24)) was 4 and the “TEAE Fatigue, subjects” value (ALS patients [2]; All NP001 Doses (N = 24)) was 2. For the same substance, the “Subjects with a TEAE that Occurred” value (ALS patients [2]; [3]) was 2, the “TEAE Contusion, subjects” value (ALS patients [2]; [3]) was 1 and the “TEAE Facial pain, subjects” value (ALS patients [2]; [3]) was 1. For the same substance, the “TEAE Fall, subjects” value (ALS patients [2]; [3]) was 1, the “TEAE Fatigue, subjects” value (ALS patients [2]; [3]) was 1 and the “Subjects with a TEAE that Occurred” value (ALS patients [2]; [4]) was 1. For the same substance, the “TEAE Contusion, subjects” value (ALS patients [2]; [4]) was 0, the “TEAE Facial pain, subjects” value (ALS patients [2]; [4]) was 0 and the “TEAE Fall, subjects” value (ALS patients [2]; [4]) was 1. For the same substance, the “TEAE Fatigue, subjects” value (ALS patients [2]; [4]) was 0, the “Subjects with a TEAE that Occurred” value (ALS patients [2]; [5]) was 2 and the “TEAE Contusion, subjects” value (ALS patients [2]; [5]) was 1. For the same substance, the “TEAE Facial pain, subjects” value (ALS patients [2]; [5]) was 0, the “TEAE Fall, subjects” value (ALS patients [2]; [5]) was 0 and the “TEAE Fatigue, subjects” value (ALS patients [2]; [5]) was 1. For the same substance, the “Subjects with a TEAE that Occurred” value (ALS patients [2]; [6]) was 2, the “TEAE Contusion, subjects” value (ALS patients [2]; [6]) was 0 and the “TEAE Facial pain, subjects” value (ALS patients [2]; [6]) was 1. The “TEAE Fall, subjects” value (ALS patients [2]; [6]) was 2 and the “TEAE Fatigue, subjects” value (ALS patients [2]; [6]) was 0.
